Results reported in patent US11793801B2, “Treatment of pain and neurological conditions” (BioCorRx, Inc., priority 2020, dated 2023).
Only a part of the results on these compounds is given; other tests are left out.

By UniProt entry, the sequences of proteins in these tests, tags left out.
UniProt P35372, whole entry: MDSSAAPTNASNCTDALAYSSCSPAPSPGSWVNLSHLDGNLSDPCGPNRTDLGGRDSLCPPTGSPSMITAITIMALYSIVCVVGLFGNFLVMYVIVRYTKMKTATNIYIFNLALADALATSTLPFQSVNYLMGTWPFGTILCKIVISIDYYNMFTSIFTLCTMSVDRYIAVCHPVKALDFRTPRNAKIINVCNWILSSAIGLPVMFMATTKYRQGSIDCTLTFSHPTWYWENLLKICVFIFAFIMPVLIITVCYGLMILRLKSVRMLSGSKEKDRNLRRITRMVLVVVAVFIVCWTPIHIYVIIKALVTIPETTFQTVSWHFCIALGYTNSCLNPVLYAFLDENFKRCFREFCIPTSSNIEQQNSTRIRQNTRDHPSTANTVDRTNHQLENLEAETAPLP

Target: mu opiate receptor (Homo sapiens, UniProt P35372)
Assay: antagonism of the effects of fentanyl
Settings: effect induced by fentanyl through the mu opiate receptor

## CCC(=O)NC1CC(C)N(CCc2ccccc2)CC1C (centres unmarked) [Compound 1, N-[2,5-dimethyl-1-(2-phenylethyl)piperidin-4-yl]propanamide]
  antagonism of fentanyl-induced analgesia: potent antagonist
  antagonism of fentanyl-induced respiratory depression: potent antagonist
